TDP1 inh: TDP1 (human) enzyme inhibition | recombinant TDP1, AlphaScreen DNA substrate cleavage | Potency, µM (series often up to 130 µM), for the others: top-dose activity change, negative = inhibition, hits mostly inhibitors | AID 485290 | actives 0.28% (n = 350,000); also: potency is read from the fitted curve at half-maximal effect; % is scaled to controls: 0 for no effect and ±100 for the full control effect; nearly all actives have a fitted effect of over 40% in size
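Recombinant human Tdp1 (E. coli-expressed, 1 nM final) preincubated with compounds 15 min at room temperature, then 5'-biotin/3'-phosphotyrosine-FITC DNA substrate (15 nM final) added for 5 min. AlphaScreen beads (10 ug/ml final) added 10 min; cleavage lowers signal.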
uPA generation: cell surface uPA generation inhibition; cell surface uPA generation assay, qHTS; Potency, µM (doses to about 38.3 µM), for inactives: at the highest dose activity change, negative = inhibition, most hits filed as inhibitors; actives 0.31% (n = 330,000); AID 540303; active = well fitted inhibition curve with a large enough effect; inconclusive = small, poorly fitted or top-dose-only effect; inactive = no such curve, though single readings can be large or run the other way; tested in mouse RAW 264.7 cells; also: potency is read from the fitted curve at half-maximal effect; % is scaled to controls: 0 for no effect and ±100 for the full control effect; nearly all actives have a fitted effect of over 55% in size
DT40 TDP1 CPT: DT40-hTDP1 cell growth loss with CPT; actives 12% (n = 420,000); Potency, µM (doses to about 46.2 µM), for the others: at the highest dose activity change, negative = growth inhibition, usual class: inhibitors; AID 686979; chicken DT40 Tdp1-/-;hTDP1 cells + 20 nM CPT, ATP luminescence, 48 h; also: potency is read from the fitted curve at half-maximal effect; % is scaled to controls: 0 for no effect and ±100 for the full control effect; nearly all actives have a fitted effect of over 55% in size
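Chicken DT40 Tdp1-/- cells complemented with human TDP1, 400 cells/well, exposed to compounds plus 20 nM camptothecin for at least 48 h at 37 C; viability read as ATP content by CellTiter-Glo luminescence.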
DT40 TDP1 no CPT: qHTS for Inhibitors of human tyrosyl-DNA phosphodiesterase 1 (TDP1): qHTS in cells in absence of CPT | DT40 Tdp1-/- hTDP1 cells, no CPT, ATP luminescence, 48 h | Potency, µM (top dose mostly 46.2 µM), inactives show top-dose activity change, negative = growth inhibition, most hits filed as inhibitors | AID 686978, 2013 | actives 15% (n = 420,000); also: potency is read from the fitted curve at half-maximal effect; % is scaled to controls: 0 for no effect and ±100 for the full control effect; nearly all actives have a fitted effect of over 55% in size
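DT40 Tdp1-/-;hTDP1 cells, no CPT (DMSO vehicle only), 400 cells/well; compounds pin-transferred; ≥48 hr, 37 °C; CellTiter-Glo 30 min RT dark, luminescence read.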
miR-21 reporter: miR-21 reporter, rising signal; Potency, µM (top dose mostly 38.3 µM), for the others: at the highest dose reporter change, positive = more light; 340,000 tested, under 10 active; HeLa miR-21 FLuc reporter, luciferase, 48 h; active = well fitted rising curve with a large enough effect; inconclusive = small, poorly fitted or top-dose-only effect; inactive = no such curve, though single readings can be large or run the other way;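 note: % of control where 0% means no effect; miR-21 action dims this reporter so a rising signal means less miR-21 action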
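Luminescence from a firefly luciferase reporter carrying a miR-21 binding site downstream, stably expressed under a CMV promoter in HeLa cells that make miR-21 endogenously, reports miRNA modulation after 48 h compound exposure up to approximately 40uM final.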
Numbers without * were called inactive; ? = inconclusive; · = no result given. Sampled rows, rich in hits. Any-hit rate of the full collection: about 16%. Unless noted, calls follow the shape of the dose curve; as a rule, active = well fitted curve in the direction sought with a large enough effect; inconclusive = small, poorly fitted or top-dose-only effect, or another doubt; inactive = no such curve, though single readings can be large; an effect the other way counts as inactive or inconclusive.

Short forms – A = TDP1 inh; B = uPA generation; C = DT40 TDP1 CPT; D = DT40 TDP1 no CPT; E = miR-21 reporter
> CCOC(=O)C1CCN(c2ncnc3c2oc2ccccc23)CC1
  A: 2% | B: -11% | C: ? | D: 16µM* | E: -17%

> CCOC(=O)C1CCCN(c2ncnc3c2oc2ccccc23)C1 (stereo unspecified)
  A: -1% | B: -5% | C: ? | D: 13µM* | E: -60%

> CCc1nnc(N2CCN(c3ncnc4c3oc3ccccc34)CC2)s1
  A: 7% | B: 0% | C: 18µM* | D: 18µM* | E: -3%

> Cc1cccn2c(=O)c3cc(C(=O)NCc4cccnc4)c(=N)n(CC4CCCO4)c3nc12 (stereo unspecified)
  A: · | B: -9% | C: 9% | D: ? | E: -1%

> CCOC1=C2CN(S(=O)(=O)c3ccc(C)cc3)[C@H](c3ccccc3)C[C@@H]2N(S(=O)(=O)c2ccc(Br)cc2)[C@H](c2ccccc2)C1
  A: · | B: · | C: ? | D: 12µM* | E: ·

> CCOC1=C2CN(S(=O)(=O)c3ccc(C)cc3)C(c3ccc(CC)cc3)CC2N(S(=O)(=O)c2ccc(C)cc2)C(c2ccc(CC)cc2)C1 (stereo unspecified)
  A: · | B: · | C: 3.7µM* | D: 2.1µM* | E: ·

> CCOC1=C2CN(S(=O)(=O)c3ccc(C)cc3)[C@H](c3ccccc3)C[C@@H]2N(S(=O)(=O)c2ccc(C)cc2)[C@H](c2cccc(C)c2)C1
  A: · | B: · | C: -6% | D: -22% | E: ·

> O=C(CSc1nnc(-c2cccs2)o1)NCc1ccco1
  A: -3% | B: 11% | C: 13% | D: 3% | E: 0%

> Cc1ccc(C)c(Nc2nn3c(=O)c4ccc(C(=O)N(C)Cc5ccccc5)cc4nc3s2)c1
  A: 8% | B: · | C: 9.2µM* | D: 21µM* | E: 0%

> Cc1cccc(Nc2nn3c(=O)c4ccccc4nc3s2)c1
  A: ? | B: -5% | C: -3% | D: -9% | E: -37%

> CCCCN(C)C(=O)c1ccc2c(=O)n3nc(Nc4cc(C)ccc4C)sc3nc2c1
  A: 3% | B: · | C: 13µM* | D: 12µM* | E: 4%

> COc1ccc(OCC(=O)N(C)CC2COc3ccccc3O2)cc1 (stereo unspecified)
  A: 0% | B: -5% | C: 18µM* | D: ? | E: ·

> CCCCN(CC)Cc1ccc(CNC(=S)Nc2c(C)cc(C)cc2C)o1
  A: 6% | B: 0% | C: 2% | D: ? | E: 0%

> CCCCN(CC)Cc1ccc(CNC(=S)Nc2ccc(C)cc2Cl)o1
  A: 2% | B: 0% | C: 16µM* | D: 18µM* | E: 0%

> CCCCN(CC)Cc1ccc(CNC(=O)Nc2ccc(F)cc2)o1
  A: 4% | B: · | C: 4.5µM* | D: 5.6µM* | E: 10%

One compound at a time (already shown):
`CCCCN(CC)Cc1ccc(CNC(=S)Nc2c(C)cc(C)cc2C)o1` is listed with TDP1 inh: 6%; uPA generation: 0%; DT40 TDP1 CPT: 2%; DT40 TDP1 no CPT: ?; miR-21 reporter: 0%
`CCCCN(CC)Cc1ccc(CNC(=O)Nc2ccc(F)cc2)o1` is listed with TDP1 inh: 4%; uPA generation: ·; DT40 TDP1 CPT: 4.5µM*; DT40 TDP1 no CPT: 5.6µM*; miR-21 reporter: 10%

The list goes on:
Short forms – A = TDP1 inh; B = uPA generation; C = DT40 TDP1 CPT; D = DT40 TDP1 no CPT; E = miR-21 reporter
> CCCCN(CCCC)Cc1ccc(C(=O)NN)o1
  A: 1% | B: 1% | C: 12% | D: -7% | E: -1%

> CC1=NN(S(=O)(=O)c2ccc(C)cc2)C(=O)c2ccccc2O1
  A: -1% | B: -10% | C: ? | D: ? | E: 1%

> COc1ccc(S(=O)(=O)N2N=C(C)Oc3ccccc3C2=O)cc1
  A: 1% | B: -14% | C: 2.9µM* | D: 2.9µM* | E: 22%

> Cc1cccc(/C=C\c2nc3ccccc3c(=O)[nH]2)c1
  A: 3% | B: -11% | C: 21µM* | D: 18µM* | E: -45%

> CN(C)c1ccc(/C=C/c2nc3ccccc3c(=O)[nH]2)cc1
  A: · | B: -25% | C: 21µM* | D: 10µM* | E: -10%

> O=c1[nH]c(/C=C/c2ccccc2F)nc2ccccc12
  A: 45µM* | B: ? | C: 2.9µM* | D: 2.9µM* | E: -27%

> Cc1nc(/C=C/c2ccccc2)[nH]c(=O)c1-c1ccccc1
  A: 3% | B: -23% | C: 10µM* | D: ? | E: -23%

> CC(C)CNC(=O)CN(c1cccc(Cl)c1)S(C)(=O)=O
  A: 3% | B: 0% | C: -6% | D: -9% | E: 0%

> CCc1ccc(NC(=O)C(=O)NCCOc2ccccc2Cl)cc1
  A: 0% | B: -1% | C: 16µM* | D: 23µM* | E: 0%

> Cc1ccc(NC(=O)CC2Nc3cccc4cccc(c34)NC2=O)cc1 (stereo unspecified)
  A: 7% | B: · | C: ? | D: 6.5µM* | E: 13%

> O=C(CC1Nc2cccc3cccc(c23)NC1=O)Nc1ccccc1 (stereo unspecified)
  A: 8% | B: 2% | C: ? | D: 26µM* | E: 5%

> NC(=O)CC1Nc2cccc3cccc(c23)NC1=O (stereo unspecified)
  A: 1% | B: 7% | C: 17% | D: 2% | E: 3%

> Cc1ccc(NC(=O)CC2Nc3ccccc3NC2=O)cc1C (stereo unspecified)
  A: · | B: · | C: -23% | D: -8% | E: -31%

> COc1cc(/C=C2\C(=N)N3N=C(S(C)(=O)=O)SC3=NC2=O)ccc1OCCOc1ccccc1C
  A: · | B: 1% | C: 4% | D: ? | E: -19%

> CCOC(=O)c1c(C)[nH]c(C(=O)/C(C#N)=C/c2ccc(OCC)cc2)c1C
  A: 5% | B: 4% | C: -9% | D: -28% | E: -47%

> c1cc(Nc2ncnc3sccc23)cc(-c2nnc3n2CCCCC3)c1
  A: 2% | B: 5% | C: 21µM* | D: ? | E: 0%

> Cc1cnc(C(=O)Nc2cccc(-c3nnc4n3CCCCC4)c2)cn1
  A: 6% | B: 3% | C: -28% | D: 0% | E: -1%

> CC1=C(C(=O)Nc2cccc(C(=O)N3CCC(C(N)=O)CC3)c2)SCCO1
  A: 3% | B: -7% | C: -2% | D: 2% | E: 0%

> CCCCCCSc1ccc([C@H]2N[C@@](CC(C)C)(C(=O)OC)[C@H]3C(=O)N(C)C(=O)[C@@H]23)cc1
  A: -1% | B: -6% | C: ? | D: ? | E: ·

> CCCCCCSc1ccc([C@H]2N[C@@](Cc3ccccc3)(C(=O)OC)[C@H]3C(=O)N(CC)C(=O)[C@@H]23)cc1
  A: -1% | B: 3% | C: ? | D: 18µM* | E: ·

> CCCSc1ccc([C@H]2N[C@@](Cc3ccccc3)(C(=O)OC)[C@H]3C(=O)N(CC)C(=O)[C@@H]23)cc1
  A: -1% | B: 3% | C: 18µM* | D: 18µM* | E: ·

> CCCCCCSc1ccc([C@H]2N[C@@](Cc3ccccc3)(C(=O)OC)[C@H]3C(=O)N(C)C(=O)[C@@H]23)cc1
  A: -6% | B: ? | C: ? | D: 21µM* | E: ·

> CCN1C(=O)[C@H]2[C@@H](c3ccc(-c4ccccc4)c(OC)c3)N[C@@](Cc3ccccc3)(C(=O)OC)[C@H]2C1=O
  A: -1% | B: 11% | C: 9% | D: -12% | E: ·

> CCOC(=O)C1(Cc2ccccc2)NC(c2ccccc2F)C2C(=O)N(CC)C(=O)C21 (stereo unspecified)
  A: 2% | B: 2% | C: 23µM* | D: 7.3µM* | E: 18%

> CC(=O)Nc1ccc(Cc2ccc3[nH]c(=O)cc(C)c3c2)cc1
  A: 6% | B: · | C: · | D: · | E: 4%

> CC(C)N(c1ccccc1)c1ccc(NC(=O)COC(=O)CCN2C(=O)c3cccc([N+](=O)[O-])c3C2=O)cc1
  A: 3% | B: 4% | C: ? | D: 16µM* | E: -4%

> CC(=O)c1ccc(NC(=O)COC(=O)CCN2C(=O)c3cccc([N+](=O)[O-])c3C2=O)cc1
  A: 5% | B: 1% | C: -13% | D: -36% | E: -2%

> O=C1CCN(Cc2ccccc2)S(=O)(=O)c2ccccc21
  A: -3% | B: -26% | C: 29µM* | D: ? | E: 3%

Screening data (PubChem)
